These results are taken from patent US11459338B2, “Heterocyclic compounds as PRMT5 inhibitors” (JUBILANT EPISCRIBE LLC, priority 2018, dated 2022).

Amino acid sequences for entries named in this document (tags omitted).
UniProt O14744, whole entry: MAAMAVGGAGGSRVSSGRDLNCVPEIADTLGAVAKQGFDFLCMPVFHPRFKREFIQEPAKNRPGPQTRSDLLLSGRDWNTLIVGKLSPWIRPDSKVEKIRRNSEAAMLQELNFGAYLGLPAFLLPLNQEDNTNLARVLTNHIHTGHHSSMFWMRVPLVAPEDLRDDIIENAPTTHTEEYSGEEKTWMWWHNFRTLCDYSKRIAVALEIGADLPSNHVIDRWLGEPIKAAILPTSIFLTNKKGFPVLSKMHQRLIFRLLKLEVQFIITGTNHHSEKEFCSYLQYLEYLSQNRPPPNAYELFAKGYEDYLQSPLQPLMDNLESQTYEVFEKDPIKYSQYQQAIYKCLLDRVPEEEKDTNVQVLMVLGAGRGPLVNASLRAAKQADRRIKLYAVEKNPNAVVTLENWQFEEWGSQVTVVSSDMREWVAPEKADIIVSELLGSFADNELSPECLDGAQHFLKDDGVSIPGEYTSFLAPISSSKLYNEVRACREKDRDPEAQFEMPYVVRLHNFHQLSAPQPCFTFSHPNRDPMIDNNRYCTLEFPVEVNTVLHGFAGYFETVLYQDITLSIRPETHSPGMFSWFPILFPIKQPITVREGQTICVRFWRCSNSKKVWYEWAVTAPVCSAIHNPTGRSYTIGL
UniProt Q9BQA1, whole entry partner: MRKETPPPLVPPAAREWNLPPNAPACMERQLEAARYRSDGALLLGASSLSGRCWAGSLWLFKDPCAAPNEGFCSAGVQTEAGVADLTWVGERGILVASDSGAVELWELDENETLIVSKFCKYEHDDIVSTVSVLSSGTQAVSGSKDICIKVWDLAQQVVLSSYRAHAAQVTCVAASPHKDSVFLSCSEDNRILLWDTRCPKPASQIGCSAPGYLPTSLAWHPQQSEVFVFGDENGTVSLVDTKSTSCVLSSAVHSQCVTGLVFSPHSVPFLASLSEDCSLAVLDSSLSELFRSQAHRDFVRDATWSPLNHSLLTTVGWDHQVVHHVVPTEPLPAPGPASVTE

One test has as its system Z-138 cells. The test is described as follows: Z-138 long term proliferation assay (Cell Titer Glo). Format: cell-based. Conditions: read-out: PRMT5 Z138 GI50 Day 8 μM, cell viability.
The next test concerns the target PRMT5/MEP50 (Homo sapiens, UniProt O14744). The test is described as follows: PRMT5/MEP50 enzyme assay on peptide substrates (3H-SAM Flashplate). The test is classed as biochemical. To be noted: read-out: PRMT5 Enzyme IC50 μM; PRMT5/MEP50 10 nM, H4 1-15aa peptide 100 nM, 3H-SAM 1 μM.

By GI50 is commonly meant the concentration that inhibits growth by half. In general, IC50 refers to the concentration that gives 50% inhibition. As for `O=C(NC[C@H](O)CN1CCc2ccccc2C1)c1cn2cc(Br)ccc2n1`, in the test with Z-138 cells, the GI50 fell in the range of 10 to 1000 nM. For the same compound, the 50% inhibitory concentration (IC50) at PRMT5/MEP50 lay in the range of 0.01 to 1 µM.
